# Measurements from patent publication US8961959B2, “Glucosylceramide synthase inhibitors and therapeutic methods using the same” (The Regents of the University of Michigan, priority 2011, dated 2015).
# Test system: MDR1-MDCKII cells
# Assay: GCS inhibition (GlcCer production) in MDCKII cells stably expressing human MDR1
# Assay type: cell-based, canine
# Experimental: Parental (WT-)MDCKII cells and MDCKII cells retrovirally transduced with human MDR-1 cDNA were obtained from the Netherlands Cancer Institute. Both cell lines were routinely maintained in medium consisting of Opti-MEM/F 12 (1:1), 5% FBS, 100 U/mL of penicillin, 100 μg/mL streptomycin and […] L-glutamine. MDCKII cells were newly thawed from frozen ampules every two months.
# Stock solutions of water-insoluble glycosphingolipid inhibitors (100 mM) were prepared by dissolving each inhibitor into 100% ethanol as previously described (3). The inhibitor-ethanol solutions then were diluted 50× into 2 mM delipidated bovine serum albumin-phosphate buffered saline solution to make water-soluble glycosphingolipid inhibitor-bovine serum albumin complexes. The inhibitor-bovine serum album complexes were sterile-filtered and stored at −20° C. […]
# Following inhibitor treatment, whole cellular lipids of wild type and MDR1-MDCKII cells were extracted as previously described in detail (10). […] A portion of purified glycosphingolipids normalized to 100 nmol of total phospholipids was analyzed by high performance thin layer chromatography. […] The levels of glucosylceramide were detected by charring with 8% cupric sulfate in 8% phosphoric acid, and quantified by densitometric scanning using ImageJ, NIH Image.
compound,measurement,setting,value
"O=C(CC1Cc2ccccc2C1)N[C@H](CN1CCCC1)[C@H](O)c1ccc2c(c1)OCCO2 [Compound 3h, 2-(2,3-dihydro-1H-inden-2-yl)-N-((1R,2R)-1-(2,3-dihydrobenzo[b][1,4]dioxin-6-yl)-1-hydroxy-3-(pyrrolidin-1-yl)propan-2-yl)acetamide]",increase in IC50 in MDR1-MDCKII cells compared to WT,,< 2 fold
same,MDR/WT,ratio of MDR1-MDCKII IC50 divided by WT-MDCKII IC50,1.6
